Results on 1 compound are retold here after ChEMBL document CHEMBL1127489, “Synthesis of novel N-phosphonoalkyl dipeptide inhibitors of human collagenase” (J Med Chem, 1994).

For the experiment, the target named is T1, Interstitial collagenase (Homo sapiens, UniProt P03956).
T1 sequence (P03956 whole entry): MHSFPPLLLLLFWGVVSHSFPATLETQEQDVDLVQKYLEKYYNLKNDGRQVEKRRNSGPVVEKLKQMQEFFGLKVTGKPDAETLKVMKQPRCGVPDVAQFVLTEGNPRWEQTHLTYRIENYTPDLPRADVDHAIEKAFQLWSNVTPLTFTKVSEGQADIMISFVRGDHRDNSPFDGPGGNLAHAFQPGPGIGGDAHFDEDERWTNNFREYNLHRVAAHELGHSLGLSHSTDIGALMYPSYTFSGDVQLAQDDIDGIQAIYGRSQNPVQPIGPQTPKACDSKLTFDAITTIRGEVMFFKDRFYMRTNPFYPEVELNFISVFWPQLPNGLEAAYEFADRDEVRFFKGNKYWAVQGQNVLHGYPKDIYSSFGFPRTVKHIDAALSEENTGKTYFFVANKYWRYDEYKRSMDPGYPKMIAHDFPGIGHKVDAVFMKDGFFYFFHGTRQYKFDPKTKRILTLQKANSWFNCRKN
The experiment can be described thus: Inhibition of degradation of radiolabeled rat skin type I collagen by semipurified human lung fibroblast collagenase. In outline: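 Collagenase from WI-38 human lung fibroblast culture supernatants, trypsin-activated and semipurified. Substrate was 3H- or 14C-acetylated rat skin type I collagen, 100 μg/tube, added at 4 °C. Enzyme amount set to degrade 70% of collagen. Compounds were dissolved in MeOH by sonication and serially diluted. Incubation ran 1000 min at 37 °C, then centrifugation at 4 °C. Supernatant soluble peptides were scintillation counted. IC50 is 50% inhibition; mean ± SEM.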

Broadly, the IC50 is the concentration at which inhibition is half-maximal.

Structures are written as SMILES.

Consider `CNC(=O)[C@H](Cc1ccc(OC)cc1)NC(=O)[C@H](CC(C)C)N[C@@H](C)C(=O)O`, for which 3.46 µM corresponded to half-maximal inhibition (IC50).
